Data: paper PMC4324418 (ACS Chemical Neuroscience, 2014)

Protein sequences, listed by entry. Tags and fused reporters are not part of them.
UniProt P08173, whole entry: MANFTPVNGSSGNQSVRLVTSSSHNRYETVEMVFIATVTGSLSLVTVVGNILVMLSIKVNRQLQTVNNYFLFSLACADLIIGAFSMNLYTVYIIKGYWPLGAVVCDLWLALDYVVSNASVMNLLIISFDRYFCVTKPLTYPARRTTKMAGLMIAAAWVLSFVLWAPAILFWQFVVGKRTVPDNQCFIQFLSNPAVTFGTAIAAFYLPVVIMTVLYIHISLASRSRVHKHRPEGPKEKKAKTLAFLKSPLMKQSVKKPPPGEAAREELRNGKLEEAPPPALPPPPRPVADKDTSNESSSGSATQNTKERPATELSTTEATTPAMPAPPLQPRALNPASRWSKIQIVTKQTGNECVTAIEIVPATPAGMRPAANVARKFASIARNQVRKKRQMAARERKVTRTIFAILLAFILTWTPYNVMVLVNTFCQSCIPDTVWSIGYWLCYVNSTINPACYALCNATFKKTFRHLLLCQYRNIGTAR
UniProt P08485, whole entry: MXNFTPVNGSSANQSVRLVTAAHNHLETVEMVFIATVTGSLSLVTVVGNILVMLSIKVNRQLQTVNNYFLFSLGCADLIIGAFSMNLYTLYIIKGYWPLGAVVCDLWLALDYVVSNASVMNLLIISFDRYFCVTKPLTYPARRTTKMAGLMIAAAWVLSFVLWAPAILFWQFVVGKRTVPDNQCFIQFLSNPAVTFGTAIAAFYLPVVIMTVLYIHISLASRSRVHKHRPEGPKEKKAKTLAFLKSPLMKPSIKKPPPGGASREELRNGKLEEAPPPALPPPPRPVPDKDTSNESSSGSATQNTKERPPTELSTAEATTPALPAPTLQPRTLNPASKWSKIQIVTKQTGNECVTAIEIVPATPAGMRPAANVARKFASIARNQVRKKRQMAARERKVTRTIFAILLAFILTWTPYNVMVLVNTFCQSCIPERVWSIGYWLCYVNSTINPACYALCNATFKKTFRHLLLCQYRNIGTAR

Assays:
M4 KO mice = test: Amphetamine-induced hyperlocomotion in M4 KO mice; format: in vivo, mouse; details: SC, lowest significant dose (also 3 mg/kg)
wild-type mice = test: Amphetamine-induced hyperlocomotion in wild-type mice; format: in vivo, mouse; details: SC, 1–3 mg/kg tested
human M4 = human M4 (Homo sapiens, UniProt P08173); test: cell-based
rat M4 receptor = rat M4 receptor (Rattus norvegicus, UniProt P08485); test: cell-based

C[C@H](N)Cc1ccccc1 [Amphetamine, D-Amphetamine hemisulfate, reference compound]
dose with significant effect on locomotor activity (M4 KO mice): 1.8 mg/kg | dose with significant effect on locomotor activity (wild-type mice): 3 mg/kg

Cc1nnc2sc(C(=O)NCc3ccc(S(=O)(=O)C(F)(F)F)cc3)c(N)c2c1C [VU0467154, 5-amino-3,4-dimethyl-N-(4-((trifluoromethyl)sulfonyl)benzyl)thieno[2,3-c]pyridazine-6-carboxamide]
EC50 (human M4): 627 nM | EC50 (rat M4 receptor): 17.7 nM
